The experiment deals with PCAF bromodomain (His/Flag epitope tagged PCAF719-832) (Homo sapiens (Human), UniProt Q92831). The experiment is described as follows: PCAF AlphaLisa binding assay. As to conditions: PCAF bromodomain 225 nM, biotinylated small molecule ligand 6 nM. The protocol:
IC50 Measurements for Inhibitors Using PCAF AlphaLisa Binding Assay
PCAF bromodomain binding and inhibition of the compounds disclosed herein was assessed by monitoring the engagement of biotinylated small molecule ligand (known to bind to the PCAF bromodomain) with the target using the AlphaLisa technology (Perkin-Elmer).
On the technique in general: In Alpha technology, singlet oxygen from a donor bead excites a nearby acceptor bead.

Protein sequences, listed by entry. Tags and fused reporters are not part of them. Residues count along the entry.
UniProt Q92831, 719-832: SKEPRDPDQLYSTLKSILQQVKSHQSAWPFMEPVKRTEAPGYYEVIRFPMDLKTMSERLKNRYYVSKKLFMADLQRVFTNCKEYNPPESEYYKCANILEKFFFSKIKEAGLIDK

Broadly, the IC50 is the concentration at which inhibition is half-maximal.

`Cn1ncc(N[C@H]2CCCN(Cc3ccccc3)C2)c(Cl)c1=O` [Example 8, (S)-5-((1-benzylpiperidin-3-yl)amino)-4-chloro-2-methylpyridazin-3(2H)-one] gave a concentration for half-maximal inhibition (IC50) of 349 nM. In turn, `C[C@@H]1C[C@H](Nc2cnn(C)c(=O)c2Cl)CN(C)C1` [Example 23, 4-chloro-5-(((3S,5R)-1,5-dimethylpiperidin-3-yl)amino)-2-methylpyridazin-3(2H)-one] gave an IC50 of 902 nM. Under `Cn1ncc(N[C@@H]2CCCN(Cc3ccccc3)C2)c(Cl)c1=O` [Example 7, (R)-5-((1-benzylpiperidin-3-yl)amino)-4-chloro-2-methylpyridazin-3(2H)-one] stands 85.6 nM. Under `Cn1ncc(NC2CCCN(CCCc3ccccc3)C2)c(Cl)c1=O` (racemic) [Example 41, Racemic-4-chloro-2-methyl-5-[[1-(3-phenylpropyl)-3-piperidyl]amino]pyridazin-3-one] stands 232 nM; under `C[C@H]1C[C@@H](Nc2cnn(C)c(=O)c2Cl)CN(C)C1` [Example 22, 4-chloro-5-(((3R,5S)-1,5-dimethylpiperidin-3-yl)amino)-2-methylpyridazin-3(2H)-one], 21.5 nM.

The values are drawn from patent US10239861B2, “Therapeutic compounds and uses thereof” (GENENTECH, INC., priority 2015, dated 2019).
